Laboratory results reported in patent US20150166664A1, “NOVEL THERAPEUTIC TREATMENTS WITH ANTI-HER2 ANTIBODIES HAVING A LOW FUCOSYLATION” (Glycotope GmbH, priority 2012, published 2015).

Tests used:
BT474 cells = assay: Active caspase-3 apoptosis assay after cross-linking with protein G; type: cell-based, human; conditions: cross-linking by protein G 2 μg/ml
Description: As a marker for induction of apoptosis, we analyzed the activation of caspase-3 using the BD PE Active Caspase-3 Apoptosis Kit. Caspase-3, a cystein protease, is a key protease that is activated during the early stages of apoptosis. […] The processed form consists of two subunits (17 kDa and 12 kDa) which associate to form the active caspase. Active caspase-3 proteolytically cleaves and activates other caspases as well as targets in the cytoplasm and in the nucleus, thereby promoting apoptosis. Activation of caspases is generally considered as the “point of no return” in apoptotic pathways.
Briefly, tumor cell lines were cultured in medium containing 1% FCS for one day prior to the assay. Cells were seeded into 48 well plates incubated at 37° C. in a CO2 incubator over night. […] The plates were incubated for 4 to 48 h at 37° C. in a CO2 incubator.
Cells (both adherent and non-adherent cells) were harvested, permeabilized, fixed and stained for active caspase-3 according to manufacturer's protocol. Active caspase-3-positive (apoptotic) cells were analyzed by flow cytometry at a BD FACS Canto II flow cytometer using BD FACSDiva™ Software.

[1] = tested on: patient derived #7268 gastric carcinoma xenografts; conditions: 1 mg/kg and 10 mg/kg i.v. twice weekly for 4 weeks; p<0.001
[2] = tested on: BT474 human breast carcinoma xenograft; assay: BT474 xenograft antitumor activity; type: in vivo, nude mice; conditions: for BT474 tumor growth compared to PBS treated animals: 3 mg/kg and 30 mg/kg i.v. twice weekly for 4 weeks; for tumor remissions: BT474, i.v. twice weekly for 4 weeks, 3 mg/kg and 30 mg/kg
Experimental: A pharmacodynamic study in nude mice analysing the efficacy of Fuc− trastuzumab in different tumor models was performed and also compared to Fuc+ trastuzumab. Athymic nude mice xenografted with HER2 positive tumor cells from a human cell line BT474 or from patient derived carcinomas were used.
In the study 1×10^7 tumor cells were subcutaneously (s.c.) implanted into nude mice (N=8 per group) and allowed to grow until tumors reached palpable size, which was reached approximately 7-13 days post implantation. The target tumor size was ˜0.1 cm^3. At this time point antibody treatment was started. Tumor size was measured twice weekly with a calliper-like instrument. Individual tumor volumes were calculated (V=(length+width^2)/2) and related to the values at the first day of treatment (relative tumor volume). The therapeutic effect was determined in terms of primary tumor growth inhibition.
The application volume was 10 μl/g body weight for both antibody formulations. […] For the set of experiments a body weight based dosing was selected to enhance the dosing accuracy and comparability during the treatment period (Fichtner et al. 2008, Steiner et al. 2007). Mabthera® (Roche) served as an irrelevant antibody control and was administered only at a dose level of 30 mg/kg. Xenografted mice were treated at the indicated dosage level when tumors reached palpable size. Each symbol represents the mean value and SEM of a group of 8 animals.

MCF-7 cells = assay: ADCC europium release assay with human PBMC on MCF-7; type: cell-based; conditions: lower HER2 expressing tumors (MCF-7)
HER2 positive cell lines = assay: Flow cytometry binding on HER2 positive cell lines; conditions: all tumor cell lines tested; 0.01 to 10 μg/ml; compared with Fuc+ trastuzumab (Herceptin®)
Experimental: Briefly, target cells were harvested and incubated with the trastuzumab variant at different concentrations. Cells were washed and incubated with a secondary Cy3-conjugated anti-human IgG antibody at 4° C. in the dark. Cells were washed and analyzed in a flow cytometer FACS Canto II (Becton Dickinson). Live cells were gated based on their scatter properties and the percentage of positive cells was calculated using the FACSDiva Software (Becton Dickinson). […] There were no differences in the percentage of positive cells over the whole analyzed concentration range of 0.01 to 10 μg/ml.

[3] = tested on: locally advanced or metastatic HER2-positive cancer; conditions: Example 3 patient history; one monotherapy and two combination therapies; cited from earlier work
[4] = tested on: HER-2/NEU-over expressing metastatic breast cancer; conditions: cited from earlier work

Substance | apoptosis induction (active caspase-3 positive cells) (BT474 cells) | tumor growth [1] | BT474 tumor growth compared to PBS treated animals ([2]; p<0.001) | tumor remissions [2] | BT474 tumor growth compared to vehicle treated animals ([2]; second study, 0.1 mg/kg to 10 mg/kg i.v. twice weekly for 4 weeks, p<0.001) | Fuc− trastuzumab mediated ADCC increase, mean (MCF-7 cells) | binding characteristics (percentage of positive cells) (HER2 positive cell lines) | effect of pretreatment [3] | response rate ([4]; bone metastases) [%] | patients with progressive disease ([4]; heavily pre-treated patients) [%] | time to disease progression (median) ([4]; human, in vivo) [months] | response ([4]; lung and liver metastases) | response rate ([4]; lymphnodes) [%] | response rate ([4]; skin metastasis) [%]
Fuc− trastuzumab: low fucosylation variant of trastuzumab expressed in a human myeloid leukemia cell line having a reduced fucosylation activity | strong concentration-dependent apoptosis | inhibited the tumor growth significantly | inhibit strongly | 8 of 8 | inhibited strongly and dose-dependently | 42 fold and 43 fold | comparable binding characteristics | – | – | – | – | – | – | –
Fuc+ trastuzumab: high fucose anti-HER2 antibody trastuzumab produced in hamster CHO cells, substantially corresponds to trastuzumab (Herceptin®) | comparable | – | inhibit strongly | 7 of 8 | – | – | – | no effect | 10 | 65 | 3.1 | no response | 43 | 50

Several values for one entry are separate records, joined by “and”; a condition that tells them apart may be missing. Equal entries are not always repeated. Where two headings read alike, the source gives them in different places.
